{"source": "paper PMC11325505", "about": "“Nitrogen-Containing Flavonoids—Preparation and Biological Activity” (ACS Omega, 2024)", "key": {"MRSA 1584": {"test_system": "MRSA 1584", "assay": "Mode of antimicrobial action with gentamicin, aac(6')/aph(2')-positive strain", "assay_type": "cell-based, Staphylococcus aureus", "text": "Among the mechanisms of resistance to gentamicin previously described in S. aureus, the presence of enzymes that alter the structure of aminoglycosides is crucial. These enzymes can transfer nucleotides, phosphates, or acetyls to various −OH or −NH2 groups of gentamicin, preventing its subsequent interaction with the cellular target, i.e., the 30S ribosomal subunit. The bifunctional aminoglycoside-modifying enzyme with acetylation and phosphotransferase activities encoded by the gene aac(6’)/aph(2’), 4′,4″ adenyltransferase encoded by the aadD gene, and aminoglycoside O-phosphotransferase encoded by the gene aph(3′) are the most important.[37] […] For this reason, further testing continued using strains MRSA 3596 and MRSA 1584, which inactivate gentamicin only by a single mechanism (aadD and aac(6’)-aph(2’’), respectively).\n(§1) Sensitization of multidrug-resistant clinical bacterial strains was performed according to ref[15]. […] The absorbance detected at 600 nm was then used to estimate the number of viable cells after 24 h of incubation at 37 °C and 120 rpm.\n(§2) Experiments were performed with the respective number of replicates indicated in each figure/table. MIC was determined as IC70. Both IC70 and IC50 values were calculated using the following nonlinear regression in the software GraphPad Prism: […]"}, "[1]": {"test_system": "Methicilin-Resistant S. aureus 331 Strain", "assay": "Mode of antimicrobial action with erythromycin, ermC-positive strain", "assay_type": "cell-based", "conditions": "MRSA 331", "text": "(§3) Erythromycin is a macrolide antibiotic that inhibits proteosynthesis by binding to the 50S subunit of the ribosome. In Staphylococcus species, resistance to erythromycin is associated with the presence of methyltransferases (encoded by erm genes) that alter the ribosomal target site. Another typical mechanism of resistance to erythromycin is the presence of an ATP-dependent efflux pump encoded by the msr(A) gene or a major facilitator superfamily (MFS) pump encoded by the lmrS gene. Both efflux pumps reduce the concentration of erythromycin in the cell below the therapeutic dose by transporting it across the membrane to the extracellular space. Another erythromycin resistance gene is the mph(C) gene, the product of which is a phosphotransferase that alters the structure of macrolide antibiotics. […]\nas §1, §2"}, "MRSA 3596": {"test_system": "MRSA 3596", "assay": "Mode of antimicrobial action with erythromycin or gentamicin, ermA- and aadD-positive strain", "assay_type": "cell-based, S. aureus", "text": "as §3, §1, §2"}}}
{"smiles": "O=c1c(O)c(-c2ccc(O)c(O)c2)oc2c(Nc3ccc(C(F)(F)F)cc3)c(O)cc(O)c12", "note": "[compound 8, 2-(3,4-Dihydroxyphenyl)-8-(4-(trifluoromethyl)anilino)-3,5,7-trihydroxy-4H–1-benzopyran-4-one]", "values": [{"measurement": "FIC (Fractional Inhibitory Concentration Index)", "setting": "MRSA 1584", "value": "0.97 ± 0.02"}, {"measurement": "FIC (Fractional Inhibitory Concentration Index)", "setting": "[1]", "value": "2.30 ± 0.03"}, {"measurement": "FIC (Fractional Inhibitory Concentration Index)", "setting": "MRSA 3596; with erythromycin", "value": "0.22 ± 0.03"}, {"measurement": "FIC (Fractional Inhibitory Concentration Index)", "setting": "MRSA 3596; with gentamicin", "value": "0.15 ± 0.01"}]}
